Measured values from BindingDB's records for 36462442.

Amino acid sequences for entries named in this document (tags omitted). Residues count along the entry.
UniProt P06276, 29-602 limits assumed: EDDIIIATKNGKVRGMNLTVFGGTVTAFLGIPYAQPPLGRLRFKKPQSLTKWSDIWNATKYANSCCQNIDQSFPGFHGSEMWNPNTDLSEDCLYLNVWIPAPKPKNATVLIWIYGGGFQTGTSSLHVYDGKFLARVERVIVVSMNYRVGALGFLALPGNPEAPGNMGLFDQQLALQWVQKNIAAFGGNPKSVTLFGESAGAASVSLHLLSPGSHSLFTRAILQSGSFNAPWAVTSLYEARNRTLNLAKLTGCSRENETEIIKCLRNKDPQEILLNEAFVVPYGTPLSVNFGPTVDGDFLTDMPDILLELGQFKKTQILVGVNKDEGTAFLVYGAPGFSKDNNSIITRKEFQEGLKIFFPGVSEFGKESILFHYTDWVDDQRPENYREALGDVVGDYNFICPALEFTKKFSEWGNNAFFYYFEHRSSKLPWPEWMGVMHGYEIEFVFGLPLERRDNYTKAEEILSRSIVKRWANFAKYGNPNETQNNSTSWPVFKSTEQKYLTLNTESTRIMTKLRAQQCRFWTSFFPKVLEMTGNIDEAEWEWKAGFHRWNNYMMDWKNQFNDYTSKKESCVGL

Target: Cholinesterase (Homo sapiens, UniProt P06276)
Assay: Inhibition of human BChE using butyrylthiocholine as substrate preincubated for 5 mins followed by substrate addition and measured after 2 mins by Perkin elmer based spectrophotometer analysis

| SMILES | IC50 [µM] |
| --- | --- |
| CC[N+](CC)(CCCCCn1c(=O)cc(C)n(CCCCn2c(C)cc(=O)n(C)c2=O)c1=O)Cc1ccccc1C(F)(F)F | 200 |
| CC[N+](CC)(CCCCCn1c(=O)cc(C)n(CCCn2c(C)cc(=O)n(C)c2=O)c1=O)Cc1ccccc1C(F)(F)F | 440 |
